Measurements published in patent publication US20180117053A1, “The Method of Use for Inhibitors of Epidermal Growth Factor Receptor Variants II, III and VI” (Metastat, Inc., priority 2015, published 2018).

Molecular target: EGFR-viii (Homo sapiens, UniProt P00533, DELINS30-297G)
Test: PhosphoY1173-EGFR-viii in-cell ELISA in U87MG tumor cells engineered to express EGFR-viii
Settings: U87MG tumor cells expressing EGFR-viii, in words

## C=CC(=O)Nc1cccc(Oc2nc(Nc3ccc(N4CCN(C)CC4)cc3OC)ncc2Cl)c1 [WZ4002]
  activity against EGFR-viii: weak activity
